# Experimental data from patent US6117878A, “8-phenyl- or 8-cycloalkyl xanthine antagonists of A2B human adenosine receptors” (priority 1998, dated 2000).
# Legend:
# [1] = biological target: T1, recombinant human A2B adenosine receptors (Homo sapiens, UniProt P29275); test: Competition binding screen, A2B (Table 1); set-up: expressed in transfected cells; host or cells: cells expressing the recombinant receptor
# T1 sequence (P29275 1-332): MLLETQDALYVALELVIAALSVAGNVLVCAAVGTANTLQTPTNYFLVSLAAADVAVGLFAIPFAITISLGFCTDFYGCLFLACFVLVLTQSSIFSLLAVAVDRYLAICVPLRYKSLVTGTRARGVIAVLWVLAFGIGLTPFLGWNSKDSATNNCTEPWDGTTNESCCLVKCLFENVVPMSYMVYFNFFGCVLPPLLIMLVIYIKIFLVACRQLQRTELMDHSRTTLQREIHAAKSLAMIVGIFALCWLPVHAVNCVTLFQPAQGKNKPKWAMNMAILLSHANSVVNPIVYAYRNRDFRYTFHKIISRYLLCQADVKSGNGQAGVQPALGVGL
# Description: This was done in competition binding assays using recombinant human A1, A2A, A2B or A3 adenosine receptors, similar to that illustrated in FIGS. 2A and 2B.
# adenosine receptors = conditions: enprofylline: therapeutic concentration range of 20-50 uM, examined at A1 and A2A only; cited from earlier work
Potency as antagonist of human A2B adenosine receptors relative to enprofylline ([1]; BW-A493 versus enprofylline),SMILES,A2B selectivity / antagonism (in words) ([1]; human A2B versus other adenosine receptors),Block of adenosine receptors (literature) (adenosine receptors)
approximately 35 times,O=C(O)C=Cc1ccc(-c2nc3c([nH]2)c(=O)n(CC2CCCCC2)c(=O)n3CC2CCCCC2)cc1 [BW-A493],potent and selective antagonist of human A2B adenosine receptors,–
–,Cn1c(=O)c2[nH]cnc2n(C)c1=O [theophylline],–,known to block adenosine receptors
